# This is a sample that favours compounds with a hit; in the whole collection about 2.2% have one here.
# UUG fidelity = alters start codon recognition fidelity in yeast; S. cerevisiae UUG-firefly luciferase reporter, luminescence/redox ratio; activity score, % at 18.7 µM; actives 0.13% (n = 350,000);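 active means replicate mean at a twofold rise or more, about +100% in these data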;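 further: firefly luciferase made from a UUG start codon reports start codon fidelity; reporter light over untreated wells divided by growth signal over untreated wells; some hits fall short of that in this replicate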
# PDI inh = inhibitors of human protein disulfide isomerase; P07237; PDI insulin aggregation turbidity, A650, 90 min; inhibition, % at 10 µM; hit rate 0.052% among 350,000; AID 588391;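 active = mean inhibition across replicates of 30% or more, whatever share of single replicates reach that level; inconclusive = mean inhibition below 30% while every single replicate reaches 30%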
# FGF22 binding-1 = FGF22 (human) thermal shift binding; Q9HCT0; activity (Tm shift, normalised), % at 9.99 µM; hit rate 1.5% among 340,000; recombinant FGF22 thermal shift, SYPRO orange fluorescence; percent of sucrose octasulfate shift, DMSO zero;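 active = mean Tm shift, scaled 0 neutral to 100 positive control, at about 1.3% or above, every replicate too, limit read from the data; inconclusive = no clear call, values can overlap the other calls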
# SIRT5 block = inhibitors of human sirtuin-5 desuccinylase; Q9NXA8; Purified SirT5, succinyl-peptide AMC, trypsin-coupled fluorescence; inhibition, % at 15 µM; hit rate 1.1% among 330,000; in the data active = inhibition above about 15%; inconclusive = no clear call, values can overlap the other calls
# ERp5 inh = ERp5 (human) disulfide isomerase inhibition | Q15084 | ERp5 insulin aggregation, absorbance 650 nm, 90 min | inhibition, % at 9.99 µM | hit rate 0.05% among 350,000 | AID 651711;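 active = mean replicate inhibition above about 25%, with every replicate also reaching it, limit read from the data, passing the limit was not always enough; inconclusive = only one of those two criteria met; inactive = neither criterion met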
# S100A4 MyoIIA = S100A4-myosin IIA interaction inhibition; P26447; S100A4/TAMRA-MyoIIA peptide fluorescence polarization; inhibition, % at 10.7 µM; hit rate 0.14% among 360,000;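 active = mean inhibition of at least 70% across replicates, with every replicate also reaching that level; inconclusive = mean inhibition reaches 70% but some replicates fall short; inactive = mean inhibition below 70%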
#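 Material: S100A4 monomer (human). Medium: Calcium-containing HEPES buffer, pH 7.2. Probe or stimulus: labelled myosin peptide probe, 5 nM. Compound dosing: one concentration per compound. Timing: polarization read 5 min after assay mix addition, stable 5–60 min. Benchmarks: DMSO as neutral control, TFP as positive control.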
# FGF22 binding-2 = FGF22 (human) binding in thermal shift | recombinant FGF22 thermal shift, SYPRO orange fluorescence | hit rate 2% among 1,000 | shares compounds with FGF22 binding-1 | thermal shift activity, °C (ΔTm) at 38 µM | AID 720646;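 active = fitted rise in melting shift crosses a set limit at or below the top valid dose tested; inconclusive = flat fit at mid-level activity, or a poor quality fit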
# TSA no protein = compound-only SYPRO artifact for FGF22 binders; AC50, µM (top dose mostly 38 µM); hit rate 2% among 1,000; shares compounds with FGF22 binding-1; compound-only SYPRO orange thermal shift counter-screen, no protein; AID 743019;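 active = rising signal whose fitted curve reaches the 0.54 level within the top valid dose, showing a melting point, actives reach about 13 µM in these data; inactive = the rest, including activity in the opposite direction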; note: value is where the raw curve crosses a fixed level and not half-maximal
# A number is an active result; – = inactive; ? = inconclusive; · = no result.
SMILES,UUG fidelity,PDI inh,FGF22 binding-1,SIRT5 block,ERp5 inh,S100A4 MyoIIA,FGF22 binding-2,TSA no protein
C[C@H]1CN([C@@H](C)CO)C(=O)Cc2cc(NC(=O)Cc3ccccc3)ccc2O[C@@H]1CN(C)Cc1ccc(C(=O)Nc2ccccc2N)cc1,·,·,–,–,–,–,·,·
C[C@@H]1CN([C@H](C)CO)C(=O)c2cccc(NC(=O)c3nc4ccccc4s3)c2O[C@H]1CN(C)C(=O)NC1CCCCC1,–,·,–,–,–,–,·,·
CN(NC1OC(=O)c2ccccc21)c1ncc(C(F)(F)F)cc1Cl (stereo not drawn),–,–,28,–,–,–,–,–
O=C(COc1ccc(S(=O)(=O)Nc2ccccc2)cc1)NCc1ccncc1,·,–,14,–,?,–,–,–
NC(=NCCc1c[nH]c2ccccc12)NS(=O)(=O)c1ccc(F)cc1,·,–,2.7,–,–,–,–,–
CC(C)CC#Cc1ccc([C@H]2[C@@H](CO)N3C(=O)CN(C(=O)c4ccccn4)C[C@@H]23)cc1,·,·,·,–,–,–,·,·
COc1ccc(NS(=O)(=O)c2cccc(C(=O)NN=Cc3ccc(OC)c(O)c3)c2)cc1,–,–,34,·,–,–,–,–
COc1ccc(/C=N/NC(=O)CN(c2ccc(OC)cc2)S(=O)(=O)c2ccccc2)cc1,·,–,–,–,–,–,·,·
COc1ccc(N(CC(=O)N/N=C/c2ccc(OC)c(OC)c2)S(=O)(=O)c2ccccc2)cc1,–,–,1.5,–,–,–,–,–
C[C@@H]1CN([C@H](C)CO)C(=O)c2cc(NC(=O)Cc3cn(C)c4ccccc34)ccc2O[C@@H]1CN(C)S(=O)(=O)c1ccc(F)cc1,–,·,–,–,–,–,·,·
O=C(NC[C@H]1[C@@H](c2ccccc2)[C@@H](CO)N1C(=O)Cc1cccnc1)C1CCC1,–,·,·,·,·,·,·,·
O=C(NC[C@@H]1[C@H](c2ccccc2)[C@H](CO)N1C(=O)Cc1cccnc1)C1CC1,–,·,1.4,–,–,–,–,–
O=C1[C@H](Cc2ccccc2)CCn2cc(nn2)COCC2CCCN12 (stereo partly drawn),·,·,–,–,–,–,·,·
COc1cc2cc(NC(C)=O)cc(NCc3ccccc3)c2cc1OC,–,–,1.5,–,–,–,–,–
CCCCNc1cc(NC(C)=O)cc2cc(OC)c(OC)cc12,–,–,·,·,·,·,·,·
CN1CCN(C(=O)C[C@@H]2CC[C@@H]3[C@@H](COc4ccc(NC(=O)C5CCCCC5)cc4C(=O)N3C)O2)CC1,–,·,–,–,–,–,·,·
N#CCSc1n[nH]c2nc3c(c(=O)n12)C1(CCCCC1)Cc1ccccc1-3,–,–,1.9,–,–,–,–,–
CCSc1n[nH]c2nc3c(c(=O)n12)C1(CCCCC1)Cc1ccccc1-3,–,–,–,·,–,–,·,·
C[C@@H]1CCCCO[C@H](CN(C)Cc2ccc(Cl)c(Cl)c2)[C@H](C)CN([C@@H](C)CO)C(=O)c2cc(NS(=O)(=O)c3ccc(F)cc3)ccc2O1,·,·,–,–,–,–,·,·
COc1ccc(OC(C)C(=O)N(C)Cc2nc(-c3cccc(C)c3)no2)cc1 (stereo not drawn),–,–,1.6,–,–,–,–,–
COc1cccc(OCC(=O)N(C)Cc2nc(-c3cccc(C)c3)no2)c1,–,–,–,·,–,–,·,·
COc1ccc(CNC(=O)C[C@@H]2C[C@@H]3c4cc(NC(=O)CC5CC5)ccc4O[C@@H]3[C@H](CO)O2)cc1,–,·,–,·,·,·,·,·
CCCC(=O)Nc1ccc(C(=O)Nc2ccc([N+](=O)[O-])cc2OC)cc1,·,–,1.4,–,–,–,–,–
O=Cc1cc(OCc2ccccc2)ccc1[B-](F)(F)F,–,–,1.5,–,–,–,–,–
Nc1ccc(OCc2ccccc2)cc1[N+](=O)[O-],–,–,–,–,–,–,·,·
SMILES,UUG fidelity,PDI inh,FGF22 binding-1,SIRT5 block,ERp5 inh,S100A4 MyoIIA,FGF22 binding-2,TSA no protein
Cc1ccc(S(=O)(=O)N(C)C[C@H]2Oc3ccc(NS(=O)(=O)c4ccccc4)cc3CC(=O)N([C@H](C)CO)C[C@@H]2C)cc1,–,·,–,–,–,–,·,·
COCCNC(=O)c1cccc2c(-c3cnn(C)c3)coc12,–,–,2.4,–,–,–,–,–
C[C@@H]1CN([C@@H](C)CO)S(=O)(=O)c2ccc(C3=CCCCC3)cc2O[C@@H]1CN(C)Cc1ccccn1,–,·,–,–,–,–,·,·
Cc1noc(C)c1S(=O)(=O)N(C)C[C@H]1Oc2ccc(NS(=O)(=O)c3cccs3)cc2C(=O)N([C@@H](C)CO)C[C@H]1C,–,·,2.1,–,–,–,–,–
C[C@@H]1CN([C@H](C)CO)C(=O)c2cc(NC(=O)c3ccncc3)ccc2O[C@H]1CN(C)S(=O)(=O)c1cn(C)cn1,–,·,–,–,–,–,·,·
C[C@H]1CN([C@@H](C)CO)C(=O)c2cc(NC(=O)c3ccncc3)ccc2O[C@@H]1CN(C)S(=O)(=O)c1cn(C)cn1,–,·,1.4,–,–,–,–,–
C[C@@H]1CN([C@H](C)CO)C(=O)Cc2cc(NC(=O)C3CC3)ccc2O[C@H]1CN(C)S(=O)(=O)c1cn(C)cn1,–,·,1.3,–,–,–,–,–
C[C@@H]1CN([C@H](C)CO)C(=O)c2cc(N(C)C)ccc2O[C@@H]1CN(C)CC1CCCCC1,–,·,1.4,–,–,–,–,–
CCC(=O)N1CCCCN2[C@H](CO)[C@@H](c3ccc(C#Cc4ccccc4F)cc3)[C@@H]2C1,–,·,–,–,–,–,·,·
C[C@H]1CN([C@@H](C)CO)C(=O)c2cc(NC(=O)CCC(F)(F)F)ccc2O[C@H]1CN(C)CC1CC1,–,·,1.8,–,–,–,–,–
C[C@@H]1CN([C@@H](C)CO)C(=O)c2cc(NS(=O)(=O)c3cn(C)cn3)ccc2O[C@@H]1CN(C)CC1CC1,–,·,1.4,–,–,–,–,–
O=C(C[C@@H]1C=C[C@H](NC(=O)c2ccncc2)[C@H](CO)O1)Nc1ccc(-c2ccccc2)cc1,–,·,–,–,–,–,·,·
O=C(Cc1n[nH]c(=O)[nH]c1=O)N/N=C/c1c(O)ccc2ccccc12,·,–,1.4,–,–,–,·,10µM
O=C(Cc1n[nH]c(=O)[nH]c1=O)N/N=C/c1ccccc1,–,–,·,·,–,–,·,·
Cn1cc([N+](=O)[O-])c(C(=O)Nc2ccc(-c3nc4ccccc4[nH]3)cc2)n1,·,–,–,–,–,–,·,·
Cn1cc([N+](=O)[O-])c(C(=O)Nc2ccc3nc(-c4ccccc4)[nH]c3c2)n1,–,–,15,–,–,–,–,–
COc1ccc(CN2C(=O)N(c3ccc(OC)cc3)C(=O)C2CC(=O)Nc2ccccc2)cc1 (stereo not drawn),–,·,1.4,–,–,–,–,–

# Source: PubChem
